For assay [1], the target named is T1, human 5-HT2C (non-edited) receptor (Homo sapiens, UniProt P28335).
T1 construct: expressed in transfected cells; host or cells: CHO-K1
The assay can be described thus: 5-HT2C (non-edited) agonism, inositol monophosphate accumulation (HTRF), CHO-K1 recombinant cells. Type of assay: cell-based. The note with it: CHO-K1, IP accumulation.

Amino acid sequences for entries named in this document (tags omitted). Residues count along the entry.
UniProt P28335, 33-458: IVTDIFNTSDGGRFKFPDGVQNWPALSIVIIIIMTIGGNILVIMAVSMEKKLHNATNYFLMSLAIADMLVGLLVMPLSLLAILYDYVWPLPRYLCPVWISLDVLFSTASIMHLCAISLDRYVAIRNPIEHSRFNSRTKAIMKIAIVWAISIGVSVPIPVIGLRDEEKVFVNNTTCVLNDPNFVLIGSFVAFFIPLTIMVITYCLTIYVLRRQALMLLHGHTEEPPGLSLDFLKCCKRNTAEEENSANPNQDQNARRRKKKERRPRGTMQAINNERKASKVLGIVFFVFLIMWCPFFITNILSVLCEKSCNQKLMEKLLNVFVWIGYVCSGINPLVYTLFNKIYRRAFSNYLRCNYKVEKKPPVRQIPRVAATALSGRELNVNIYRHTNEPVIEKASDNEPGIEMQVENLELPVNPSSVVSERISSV

The target in assay [2] is human 5-HT2C (edited) receptor (Homo sapiens, UniProt P28335). The assay can be described thus: 5-HT2C (edited) agonism, inositol monophosphate accumulation (HTRF), CHO-K1 recombinant cells. The conditions noted are these: CHO-K1, IP accumulation. The format is cell-based.

Our source for the EC50 values is patent US20250205191A1, “R(-)-MDMA COMPOSITIONS AND METHODS OF TREATMENT” (EmpathBio, Inc., priority 2023, published 2025).

Molecules are shown by their SMILES.

In the case of `CN[C@H](C)Cc1ccc2c(c1)OCO2` [R(−)-MDMA, R(−)-3,4-methylenedioxymethamphetamine], the EC50 is 0.376 µM in assay [1] and 0.494 µM in assay [2].

On to `CNC(C)Cc1ccc2c(c1)OCO2` (racemic) [Racemic MDMA, 3,4-methylenedioxymethamphetamine, reference compound], for which the 50% effective concentration (EC50) came to 0.943 µM in assay [1] and 0.881 µM in assay [2].
